Measurements taken from paper PMC5519068 (PLoS ONE, 2017).

Tested on: patient-derived Flt3-ITD+ AML bone marrow cells
Test: Apoptosis by flow cytometry for cell-surface phosphatidylserine in primary AML samples
Format: cell-based, human

COc1cc2c(N3CCN(C(=O)Nc4ccc(OC(C)C)cc4)CC3)ncnc2cc1OCCCN1CCCCC1 [Tandutinib, reference compound]
Response of patient samples: unresponsive
